Values of other authors, collected in publication PMC5744648.

The chains behind the UniProt entries cited, without tags or fusion partners. Where a name states a change or a piece, a line headed by the entry shows the natural chain unless it says otherwise.
UniProt Q99788: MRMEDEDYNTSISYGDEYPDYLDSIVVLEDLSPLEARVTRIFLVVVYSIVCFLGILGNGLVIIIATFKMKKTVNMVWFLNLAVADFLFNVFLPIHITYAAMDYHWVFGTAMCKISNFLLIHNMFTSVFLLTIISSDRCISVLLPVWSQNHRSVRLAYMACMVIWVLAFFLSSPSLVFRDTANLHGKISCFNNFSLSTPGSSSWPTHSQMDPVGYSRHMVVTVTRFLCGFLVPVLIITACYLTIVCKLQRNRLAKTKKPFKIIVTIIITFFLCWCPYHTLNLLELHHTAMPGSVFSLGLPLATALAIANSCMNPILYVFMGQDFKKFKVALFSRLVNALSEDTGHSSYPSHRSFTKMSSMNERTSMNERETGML

Target: CMKLR1 (Chemerin1) (Homo sapiens) (UniProt Q99788)
Assay: fluorescent ligand cell binding

**Q.** Which Kd does the source give for “Amyloid-beta 42 672-713 (from UniProt P05067)” here?
**A.** The Kd was 800 nM.
